Tested on: A549 cells
Experiment: Cytotoxicity assay by flow cytometry, Annexin V-DY634 / 7-AAD double staining
Settings: A549, IC50 to ¼ IC50, dark and irradiation at 470 nm

## [Ir(bzq)2(dpa-acr)]^+ [Complex 4]
  Cytotoxic activity (Annexin V / 7-AAD): concentration-dependent cytotoxic activity

From article PMC8472790, “Dual Emissive Ir(III) Complexes for Photodynamic Therapy and Bioimaging” (Pharmaceutics, 2021)
